The entries are a selection whose mix differs from that of the whole data set. The source made the active and inactive calls. No stated cut-off is given here; in the data, active means TR-FRET ratio above about 2000; inactive means the rest.

TR-FRET ratio data for 1 molecule are collected here from PubChem BioAssay AID1049 (The Scripps Research Institute Molecular Screening Center, 2008).

This assay in a line: TR-FRET signal artefacts, primary screen, artefact control for PPARgamma SRC-2 agonist project, biochemical (AID 1049). Conditions: TR-FRET artefact counter-screen; at 8 µM; active compounds read high.
Turning to `CN(C)c1ccc2nc3ccc(=[N+](C)C)cc-3sc2c1`, the TR-FRET ratio is active: 7110.
